Test results reported in ChEMBL document CHEMBL2074273, “Reversal of breast cancer resistance protein (BCRP/ABCG2)-mediated drug resistance by novobiocin, a coumermycin antibiotic” (Int J Cancer, 2004).

Amino acid sequences for entries named in this document (tags omitted). A change or cut given only in a name is not applied to a line headed by its entry.
UniProt Q9UNQ0: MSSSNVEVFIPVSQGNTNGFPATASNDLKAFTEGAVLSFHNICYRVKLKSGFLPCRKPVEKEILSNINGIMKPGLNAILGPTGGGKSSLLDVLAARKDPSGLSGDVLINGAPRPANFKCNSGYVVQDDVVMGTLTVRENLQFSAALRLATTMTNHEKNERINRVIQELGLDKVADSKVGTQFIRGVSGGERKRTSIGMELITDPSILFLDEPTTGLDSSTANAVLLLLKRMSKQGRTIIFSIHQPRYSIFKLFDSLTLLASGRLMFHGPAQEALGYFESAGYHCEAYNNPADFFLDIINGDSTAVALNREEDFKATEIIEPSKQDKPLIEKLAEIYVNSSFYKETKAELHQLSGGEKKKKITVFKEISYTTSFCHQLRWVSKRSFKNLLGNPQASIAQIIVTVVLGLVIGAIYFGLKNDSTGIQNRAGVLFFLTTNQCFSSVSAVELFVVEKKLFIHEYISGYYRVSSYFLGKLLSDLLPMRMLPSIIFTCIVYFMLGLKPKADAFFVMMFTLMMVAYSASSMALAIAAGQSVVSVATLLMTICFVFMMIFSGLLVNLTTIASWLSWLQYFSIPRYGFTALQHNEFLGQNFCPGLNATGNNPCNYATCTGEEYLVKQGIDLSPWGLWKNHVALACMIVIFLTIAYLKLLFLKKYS

Target: Broad substrate specificity ATP-binding cassette transporter ABCG2 (Homo sapiens, UniProt Q9UNQ0)
Test: TP_TRANSPORTER: inhibition of ATP-depdent uptake of topotecan in membrane vesicle from BCRP-expressing PC-6/SN2-5H2 cells
Format: functional, cell membranes
Settings: pc-6/sn2-5h

Ki: inhibitor [Ki=-100nM]
Structure (SMILES): CO[C@@H]1[C@@H](OC(N)=O)[C@@H](O)[C@H](Oc2ccc3c(O)c(NC(=O)c4ccc(O)c(CC=C(C)C)c4)c(=O)oc3c2C)OC1(C)C [NOVOBIOCIN]
